Laboratory results as given in PMC10461227, “Discovery of AD258 as a Sigma Receptor Ligand with Potent Antiallodynic Activity” (Journal of Medicinal Chemistry, 2023).
Structures can show the parent of a compound that is named as a salt.

Tested on: capsaicin-induced mechanical hypersensitivity (allodynia) in mice
Assay: Capsaicin-induced mechanical hypersensitivity (allodynia) in mice
Assay type: in vivo

## CN1CCN(CCc2ccc(Cl)c(Cl)c2)CC1 [BD1063, 1-[2-(3,4-dichlorophenyl)ethyl]-4-methylpiperazine dihydrochloride, reference compound]
PRE-084 32 mg/kg s.c. given 5 min before the compound at its dose of maximum effect
  effect of PRE-084 on the antiallodynic effect of the compound: fully reversed
s.c., 30 min before capsaicin
  antiallodynic effect on capsaicin-induced allodynia (in words): dose-dependent and full reversal of capsaicin-induced allodynia
s.c., capsaicin-induced mechanical hypersensitivity
  dose of maximum antiallodynic effect: 40 mg/kg
